The chains behind the UniProt entries cited, without tags or fusion partners.
UniProt Q9UNA4, whole entry: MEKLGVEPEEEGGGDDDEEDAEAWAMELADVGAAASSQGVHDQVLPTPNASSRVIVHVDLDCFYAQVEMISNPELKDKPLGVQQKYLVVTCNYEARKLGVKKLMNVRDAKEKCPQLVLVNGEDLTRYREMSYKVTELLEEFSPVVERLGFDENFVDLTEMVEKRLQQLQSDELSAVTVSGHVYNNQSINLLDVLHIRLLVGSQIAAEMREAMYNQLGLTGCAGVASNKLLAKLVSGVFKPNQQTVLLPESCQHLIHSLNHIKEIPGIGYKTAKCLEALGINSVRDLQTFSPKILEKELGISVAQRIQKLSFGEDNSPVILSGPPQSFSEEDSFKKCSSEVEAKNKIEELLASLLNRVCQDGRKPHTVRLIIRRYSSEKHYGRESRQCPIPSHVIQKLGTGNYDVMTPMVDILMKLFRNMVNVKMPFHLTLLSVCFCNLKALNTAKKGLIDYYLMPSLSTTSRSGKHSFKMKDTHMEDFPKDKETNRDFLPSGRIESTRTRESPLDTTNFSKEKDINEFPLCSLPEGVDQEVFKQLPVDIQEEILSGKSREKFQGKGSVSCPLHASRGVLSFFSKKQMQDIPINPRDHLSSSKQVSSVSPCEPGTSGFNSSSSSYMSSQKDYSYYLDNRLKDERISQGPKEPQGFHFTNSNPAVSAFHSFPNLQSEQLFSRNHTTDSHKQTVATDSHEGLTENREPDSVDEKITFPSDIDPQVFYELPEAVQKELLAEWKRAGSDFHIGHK

This is a selection; strong and weak results do not stand in their true shares. Inconclusive results are not listed. Some salts and complexes are drawn in separate pieces, as the source files them; their charges need not balance. Active and inactive are the calls of the source. Calls follow the shape of the dose curve; as a rule, active = well fitted inhibition curve with a large enough effect; inconclusive = small, poorly fitted or top-dose-only effect, or another doubt; inactive = no such curve, though single readings can be large or run the other way.
The compounds below were run against DNA polymerase iota (Homo sapiens) (UniProt Q9UNA4) (assay: qHTS for Inhibitors of Polymerase Iota). Settings: Pol iota fluorescent replication assay, 10 min; at 115 µM (top of the series).
With `CCN1CCC(Nc2cccc(F)c2)CC1` the activity, negative = inhibition was inactive: -0.737%.
In the case of `Cc1ccccc1NC1(C#N)CCN(Cc2ccccc2)CC1`, the activity, negative = inhibition is reported as inactive: 11.9%.
With `CN(C)c1ccc(C(=O)NCC2(N3CCCCC3)CCCCC2)cc1` the activity, negative = inhibition was inactive: 60.7%.
For `CC(C)(C)c1ccc(C(=O)NCC2(N3CCOCC3)CCCCC2)cc1`, the activity, negative = inhibition was inactive: 7.63%.
For `O=C(NCC1(N2CCCCC2)CCCCC1)c1ccco1`, the activity, negative = inhibition was inactive: 32.5%.
`Cc1ccccc1C(=O)NCC1(N(C)C)CCCCC1` was tested, and the activity, negative = inhibition was inactive: 21.5%.
`COc1cc(OC)cc(C(=O)NCC2(N3CCCCC3)CCCCC2)c1` was tested, and the activity, negative = inhibition was inactive: 29.1%.
With `CC(=O)N(c1ccccc1)C1CCNCC1` the activity, negative = inhibition was inactive: 7.47%.
With `CN(C)C1(CNC(=O)c2ccc(C(C)(C)C)cc2)CCCCC1` the activity, negative = inhibition was inactive: 29.5%.
In the case of `Cc1ccc(NC2(C#N)CCN(Cc3ccccc3)CC2)cc1`, the activity, negative = inhibition is reported as inactive: 94.3%.
For `Fc1ccccc1NC1CCN(Cc2ccccc2)CC1`, the activity, negative = inhibition was inactive: -11.7%.
For `Cc1ccc(C(=O)NCC2(N3CCCCC3)CCCCC2)o1`, the activity, negative = inhibition was inactive: 15.4%.
With `COc1cc(C(=O)NCC2(N(C)C)CCCCC2)ccc1OC(F)F` the activity, negative = inhibition was inactive: -12%.
`CCOC(=O)N1CCC(Nc2cccc(C)c2)CC1` was tested, and the activity, negative = inhibition was inactive: -4.61%.
With `CCOc1ccc(C)cc1CN(CCCl)CCCl` the activity, negative = inhibition was inactive: 133%.
For `O=C1CCN(Cc2ccccc2)CC1`, the activity, negative = inhibition was inactive: 8.13%.
In the case of `O=C(NCC1(N2CCOCC2)CCCCC1)c1ccc(Cl)cc1`, the activity, negative = inhibition is reported as inactive: 5.64%.
With `COc1ccc(NC2CCN(CCc3ccccc3)CC2)c(OC)c1` the activity, negative = inhibition was inactive: 18.2%.
In the case of `O=C(NCC1(N2CCCCC2)CCCCC1)c1ccc(F)cc1`, the activity, negative = inhibition is reported as inactive: 39.3%.
With `O=P1(N(CCCl)CCCl)SCCCS1` the activity, negative = inhibition was inactive: 37.6%.
With `CCCCOc1ccc(C(=O)NCC2(N3CCOCC3)CCCCC2)cc1` the activity, negative = inhibition was inactive: 48.3%.
`COc1ccccc1C(=O)NCC1(N2CCOCC2)CCCCC1` was tested, and the activity, negative = inhibition was inactive: 13.6%.
In the case of `O=C(NCC1(N2CCOCC2)CCCCC1)c1cc2ccccc2o1`, the activity, negative = inhibition is reported as inactive: 9.7%.
With `Cc1cc(C)cc(N(C(=O)c2ccccc2)C2CCN(C(=O)OC(C)(C)C)CC2)c1` the activity, negative = inhibition was inactive: 31.2%.
For `O=C(NCC1(N2CCCCC2)CCCCC1)c1ccc(Cl)nc1`, the activity, negative = inhibition was inactive: -4.66%.
In the case of `CCOC(=O)N1CCC(Nc2ccc(OC)cc2)CC1`, the activity, negative = inhibition is reported as inactive: 3.99%.
In the case of `COc1ccc(Cl)cc1C(=O)NCC1(N2CCOCC2)CCCCC1`, the activity, negative = inhibition is reported as inactive: 1.14%.
With `O=C(OC1CN2CCC1CC2)C1c2ccccc2Oc2ccccc21` (stereo not drawn) the activity, negative = inhibition was inactive: 20.3%.
`N#CC1(Nc2ccccc2)CCN(Cc2ccccc2)CC1` was tested, and the activity, negative = inhibition was inactive: -13.6%.
`O=C(NCC1(N2CCCCC2)CCCCC1)c1ccc(Cl)s1` was tested, and the activity, negative = inhibition was inactive: 5.42%.
In the case of `O=C(NCC1(N2CCCCC2)CCCCC1)c1cccs1`, the activity, negative = inhibition is reported as inactive: 12.3%.
`O=C(NCC1(N2CCCCC2)CCCCC1)c1ccc(=O)[nH]c1` was tested, and the activity, negative = inhibition was inactive: 19.1%.
In the case of `CC(C)(C)OC(=O)N1CCC(N(C(=O)c2ccccc2)c2ccc(F)cc2)CC1`, the activity, negative = inhibition is reported as inactive: -12.5%.
With `COc1ccc(C(=O)NCC2(N3CCCCC3)CCCCC2)cc1` the activity, negative = inhibition was inactive: 39.1%.
In the case of `Cc1cccc(NC2(C#N)CCN(Cc3ccccc3)CC2)c1`, the activity, negative = inhibition is reported as inactive: 58.2%.
With `CSc1ccccc1C(=O)NCC1(N2CCCCC2)CCCCC1` the activity, negative = inhibition was inactive: 27%.
With `COc1ccc2c(c1O)-c1c(O)c(OC)cc3c1[C@H](C2)[N+](C)(C)CC3.O=[N+]([O-])c1cc([N+](=O)[O-])c([O-])c([N+](=O)[O-])c1[O-]` the activity, negative = inhibition was inactive: 46.8%.
With `O=C(NCC1(N2CCCCC2)CCCCC1)c1cncc(Br)c1` the activity, negative = inhibition was inactive: 16.9%.
With `CN1CCC(Nc2cccc(F)c2)CC1` the activity, negative = inhibition was inactive: 19.9%.
In the case of `O=C(OC1CN2CCC1CC2)c1ccc([N+](=O)[O-])cc1` (stereo not drawn), the activity, negative = inhibition is reported as inactive: 2.36%.
In the case of `CCCOc1ccc(C(=O)NCC2(N(C)C)CCCCC2)cc1OC`, the activity, negative = inhibition is reported as inactive: 20.9%.
In the case of `O=C(NCC1(N2CCOCC2)CCCCC1)c1ccccc1Br`, the activity, negative = inhibition is reported as inactive: -5.86%.
In the case of `CCCCOc1ccccc1C(=O)NCC1(N2CCOCC2)CCCCC1`, the activity, negative = inhibition is reported as inactive: -7.64%.
With `O=[N+]([O-])c1cc([N+](=O)[O-])c(OC2CCCCC2O)c([N+](=O)[O-])c1` (stereo not drawn) the activity, negative = inhibition was inactive: 25.9%.
For `CN(C)c1cccc(C(=O)NCC2(N3CCCCC3)CCCCC2)c1`, the activity, negative = inhibition was inactive: 0.458%.
With `COc1ccc(CN(CCCl)CCCl)cc1Cl` the activity, negative = inhibition was inactive: 13.6%.
`CC(C)c1ccc(NC2CCN(C(=O)OC(C)(C)C)CC2)cc1` was tested, and the activity, negative = inhibition was inactive: 46.9%.
`O=C(NCC1(N2CCOCC2)CCCCC1)c1cc(F)c(F)cc1Cl` was tested, and the activity, negative = inhibition was inactive: 23.2%.
For `COc1cc(OC)c(C(=O)NCC2(N(C)C)CCCCC2)cc1OC`, the activity, negative = inhibition was inactive: 25.3%.
`CCCOc1cccc(C(=O)NCC2(N3CCOCC3)CCCCC2)c1` was tested, and the activity, negative = inhibition was inactive: -5.72%.
For `O=C(NCC1(N2CCCCC2)CCCCC1)c1cccc(C(F)(F)F)c1`, the activity, negative = inhibition was inactive: -2.92%.
In the case of `O=[N+]([O-])c1cc([N+](=O)[O-])c(NCC2CCS(=O)(=O)C2)c([N+](=O)[O-])c1` (stereo not drawn), the activity, negative = inhibition is reported as inactive: 1.61%.
`CN1CCN(CCOC(=O)C(O)(c2ccccc2)c2ccccc2)CC1` was tested, and the activity, negative = inhibition was inactive: -14.7%.
In the case of `CC(C)c1ccc(C(=O)NCC2(N3CCOCC3)CCCCC2)cc1`, the activity, negative = inhibition is reported as inactive: 12.8%.
`COc1ccc(NC2CCN(C(=O)OC(C)(C)C)CC2)cc1` was tested, and the activity, negative = inhibition was inactive: 22.9%.
With `COc1cc(C(=O)NCC2(N3CCCCC3)CCCCC2)ccc1OC(F)F` the activity, negative = inhibition was inactive: 14.4%.
In the case of `O=C(NCC1(N2CCOCC2)CCCCC1)c1cc(=O)[nH]c2ccccc12`, the activity, negative = inhibition is reported as inactive: 23.2%.
For `O=C(NCC1(N2CCCCC2)CCCCC1)c1ccc(OC(F)F)cc1`, the activity, negative = inhibition was inactive: 129%.
For `CSc1ccc(C(=O)NCC2(N3CCOCC3)CCCCC2)cc1`, the activity, negative = inhibition was inactive: 25.2%.
In the case of `CCOc1ccc(C(=O)NCC2(N3CCOCC3)CCCCC2)cc1`, the activity, negative = inhibition is reported as inactive: -5.27%.
With `O=C(NCC1(N2CCCCC2)CCCCC1)c1cccc([N+](=O)[O-])c1` the activity, negative = inhibition was inactive: -0.978%.
In the case of `N#CC1(Nc2ccccc2)CCN(CCc2ccccc2)CC1`, the activity, negative = inhibition is reported as inactive: 20.9%.
`CCN1CCC(Nc2ccc(Cl)cc2)CC1` was tested, and the activity, negative = inhibition was inactive: 6.01%.
